The assay has as its target T1, human COMT (Homo sapiens, UniProt P21964).
T1 construct: from tissue; host or cells: human liver cytosol (preparations HL4C, HL9C, HL8C)
T1 sequence (P21964 1-221 isoform P21964-2): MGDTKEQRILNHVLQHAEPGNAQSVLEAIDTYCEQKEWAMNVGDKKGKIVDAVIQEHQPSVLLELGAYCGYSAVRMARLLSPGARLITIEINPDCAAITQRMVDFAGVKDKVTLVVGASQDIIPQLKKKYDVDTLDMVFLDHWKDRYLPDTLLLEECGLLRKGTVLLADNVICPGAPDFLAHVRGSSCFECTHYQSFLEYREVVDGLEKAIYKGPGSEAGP
The assay can be described thus: Inhibition of human liver COMT-mediated o-methylation of catecholamines (human liver cytosol, [3H-methyl]AdoMet). Particulars: read-out: IC50, inhibition of human COMT-mediated o-methylation of L-DOPA and other catecholamines; 10 μM catecholamine substrate, 250 μM AdoMet, 0.25 mg/mL human liver cytosolic protein, 37° C., 10 min, pH 7.4. Type of assay: biochemical.

Structures are written as SMILES.

Broadly, the IC50 is the point on the concentration scale where inhibition reaches its midpoint.

Turning to `O=C(O[C@@H]1Cc2c(O)cc(O)cc2O[C@@H]1c1cc(O)c(O)c(O)c1)c1cc(O)c(O)c(O)c1` [EGCG, (−) epigallocatechin-3-o-gallate catechin], the IC50 is 20 to 70 nM.

The values above are taken from US20090227673A1, “Method and Composition for the Treatment of Parkinson's Disease” (priority 2006, published 2009).
